In the library only some 1.3% were active in any assay of this set; here they are far more common.
ARNT-TACC3 inh: disruptors of ARNT/TACC3 protein interaction, primary screen, biochemical, AlphaScreen, single concentration; Transforming acidic coiled-coil-containing protein 3 (Homo sapiens), Q9Y6A5; AlphaScreen His-ARNT PAS-B/GST-TACC3 binding, luminescence; TACC3 fragment carries E629A point mutation; inhibition, % at 9.99 µM; actives 0.66% (n = 390,000);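 active = mean inhibition of replicates at least 50% and at least half of replicates each reaching 50%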;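 note: 0% = complete ARNT plus TACC3 wells and 100% = ARNT alone without TACC3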
AF4-AF9 inh: inhibitors of AF4 peptide binding to AF9, primary screen, biochemical, AlphaScreen, biotin-AF4 peptide, FLAG-AF9, single point. Protein AF-9 (Homo sapiens), P42568. inhibition, % at 10 µM. actives 0.47% (n = 350,000);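 active = every replicate reaching a set inhibition limit, whatever the replicate mean, cut at about 25% in these data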;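 note: 0% = plate neutral control median and 100% = total signal loss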
UUG fidelity: alters start codon recognition fidelity in yeast. S. cerevisiae UUG-firefly luciferase reporter, luminescence/redox ratio. 350,000 tested, 0.13% active. activity score, % at 18.7 µM. AID 602363;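 active means replicate mean at a twofold rise or more, about +100% in these data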;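 further: firefly luciferase made from a UUG start codon reports start codon fidelity; reporter light over untreated wells divided by growth signal over untreated wells; some hits fall short of that in this replicate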
S100A4 MyoIIA: inhibitors of S100A4-myosin IIA peptide binding, primary screen, biochemical, fluorescence polarization, TAMRA-MyoIIA peptide. inhibition, % at 10.7 µM. actives 0.14% (n = 360,000). AID 652163, 2013;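 active = mean inhibition of at least 70% across replicates, with every replicate also reaching that level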
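assay system = human S100A4 monomer with TAMRA-labelled myosin IIA peptide | also added = labelled myosin peptide probe, 5 nM | incubation = 5 min between mix addition and reading | control set = DMSO and TFP controls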
E-sel inducer: E-selectin induction in HUVECs, primary screen, imaging, HUVEC, immunofluorescence imaging, single point. P16581. normalized: neutral wells 0, TNF-alpha wells 100. activation, % at 7.58 µM. actives 0.37% (n = 260,000);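 active = mean E-selectin-positive cell signal at least 10% of the positive control, reached in at least 60% of replicates, without over 20% cell loss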
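material = human umbilical vein endothelial cells (HUVEC), E-selectin induction | quantity = 3,000 cells/well | medium = EGM-2 growth medium on 0.1% gelatin-coated wells | technique = immunofluorescence imaging | read-out basis = % PE-positive cells | control set = TNF-alpha positive control, DMSO neutral control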
ERAP1 inh: human ERAP1 aminopeptidase inhibitors, primary screen, biochemical, single point, plate reader | Endoplasmic reticulum aminopeptidase 1 (Homo sapiens), Q9NZ08 | recombinant ERAP1, Leu-AMC fluorescence, 60 min | inhibition, % at 10.7 µM | actives 0.15% (n = 340,000) | AID 652197, 2013;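 active = mean replicate inhibition of at least 30%, or all replicates individually reaching that 30% level; inactive = mean below 30% and not every replicate reaching it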;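 note: 0% = neutral control wells and 100% = L-leucinethiol positive control wells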
* marks the source's active call; other numbers are inactive results; . = no result.

By UniProt entry, the sequences of proteins in these tests, tags left out.
Protein AF-9 (Homo sapiens), P42568, UniProt P42568, whole entry, looked up: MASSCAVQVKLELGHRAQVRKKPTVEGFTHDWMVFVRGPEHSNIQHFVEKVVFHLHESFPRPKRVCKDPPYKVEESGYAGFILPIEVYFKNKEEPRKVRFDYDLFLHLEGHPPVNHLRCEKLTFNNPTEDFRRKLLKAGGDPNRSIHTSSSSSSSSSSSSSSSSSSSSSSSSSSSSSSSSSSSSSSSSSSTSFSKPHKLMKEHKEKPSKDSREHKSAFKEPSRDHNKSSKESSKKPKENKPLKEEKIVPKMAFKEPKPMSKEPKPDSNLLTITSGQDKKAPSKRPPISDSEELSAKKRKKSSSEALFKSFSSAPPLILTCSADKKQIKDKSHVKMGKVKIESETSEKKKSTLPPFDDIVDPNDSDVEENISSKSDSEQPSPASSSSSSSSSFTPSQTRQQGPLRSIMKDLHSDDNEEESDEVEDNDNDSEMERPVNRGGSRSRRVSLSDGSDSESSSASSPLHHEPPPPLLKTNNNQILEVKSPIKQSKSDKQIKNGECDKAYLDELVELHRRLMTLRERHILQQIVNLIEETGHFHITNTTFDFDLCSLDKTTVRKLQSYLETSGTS

Letters: A = ARNT-TACC3 inh; B = AF4-AF9 inh; C = UUG fidelity; D = S100A4 MyoIIA; E = E-sel inducer; F = ERAP1 inh
O=C(O)CCC(=O)NCC(=O)c1ccc(F)cc1
  A: -8	B: 2	C: -11	D: -15	E: 70*	F: .

COc1ccc(-c2nc3cc(C)c(Br)c(C)n3c2CC(C)(C)C)cc1OC
  A: .	B: 2	C: -8	D: -3	E: 177*	F: .

Cc1c(OCC(=O)N(C)c2ccccc2)ccc2c3c(c(=O)oc12)CCC3
  A: 2	B: 32*	C: 23	D: 2	E: 0	F: 1

CO[C@H]1O[C@H](CO)[C@@H](OC(=O)Nc2ccccc2)[C@H](OC(=O)Nc2ccc3c(c2)OCO3)[C@@H]1OC(=O)Nc1ccc2c(c1)OCO2
  A: 5	B: 27*	C: 10	D: -5	E: .	F: -1

CO[C@H]1O[C@H](CO)[C@@H](OC(=O)Nc2cccc(F)c2)[C@H](OC(=O)Nc2ccc3c(c2)OCO3)[C@@H]1OC(=O)Nc1ccc2c(c1)OCO2
  A: 16	B: 21	C: 1	D: -5	E: .	F: -2

O=C(NCC[C@@H]1CC[C@@H](NS(=O)(=O)c2cccc(F)c2)[C@@H](CO)O1)C1CCOCC1
  A: -3	B: -2	C: -12	D: -1	E: -1	F: 0

CC/C(=C\c1ccc(N(C)C)cc1)c1ccncc1
  A: 11	B: 28*	C: .	D: -37	E: 9	F: 2

C[C@H](CO)N1C[C@H](C)[C@H](CN(C)S(=O)(=O)c2ccc(Cl)cc2)OCc2cn(nn2)CCCC1=O
  A: .	B: -1	C: .	D: .	E: 0	F: .

C[C@H]1CN([C@@H](C)CO)C(=O)c2cccc(NC(=O)NC3CCCCC3)c2O[C@H]1CN(C)S(C)(=O)=O
  A: -2	B: 1	C: 2	D: 1	E: .	F: -2

Cc1ccnc(NC(NC(=O)C(C)C)(C(F)(F)F)C(F)(F)F)c1
  A: -4	B: -9	C: .	D: -2	E: 136*	F: 6

COC(=O)C(NC(=O)c1ccco1)(Nc1cc(C)ccn1)C(F)(F)F (stereo not drawn)
  A: -1	B: .	C: -10	D: .	E: .	F: .

CC(=O)Nc1nc(=O)c2ccccc2s1
  A: 0	B: -37	C: -13	D: 1	E: .	F: 33*

CCN(CC)c1ccc2nc3c4ccccc4c(=O)cc-3oc2c1
  A: .	B: 1	C: .	D: -14	E: 203*	F: 0

CN1CCN(S(=O)(=O)c2ccc(C3CCCCC3)cc2)CC1
  A: 0	B: 0	C: -17	D: -5	E: 0	F: 96*

O=S(=O)(c1ccc(C2CCCCC2)cc1)N1CCN(c2ncccn2)CC1
  A: 5	B: -2	C: -11	D: -8	E: .	F: -1

O=C(Nc1nnc(-c2ccccc2Cl)o1)c1cccnc1
  A: 54*	B: .	C: .	D: .	E: .	F: .

O=C(Nc1ccc(NC(=O)c2ccccc2Cl)cc1)c1cccnc1
  A: -5	B: -3	C: -22	D: -4	E: 0	F: -1

C/C=C/c1cnc2c(c1)C(=O)N([C@H](C)CO)C[C@H](C)[C@H](CN(C)C(=O)Cc1ccccn1)O2
  A: -10	B: -1	C: -2	D: 1	E: 0	F: 2

CN(C)S(=O)(=O)c1cccc(NC(=S)N/N=C/c2cc(Br)ccc2O)c1
  A: 62*	B: 16	C: -14	D: 1	E: .	F: -1

Cc1ccc(S(=O)(=O)N[C@H]2CC[C@@H](CC(=O)NCc3ccncn3)O[C@H]2CO)cc1
  A: 0	B: -3	C: -7	D: -36	E: 0	F: -2

Cc1nnc(NC(=O)c2ccc(S(=O)(=O)N(C)Cc3ccccc3)cc2)o1
  A: 46*	B: .	C: -33	D: .	E: .	F: .

Cc1nnc(NC(=O)c2ccc(S(=O)(=O)N3CC(C)OC(C)C3)cc2)o1 (stereo not drawn)
  A: 64*	B: 0	C: -20	D: -3	E: -1	F: -2

COCCN(CCOC)S(=O)(=O)c1ccc(C(=O)Nc2nnc(C)o2)cc1
  A: 57*	B: .	C: -25	D: .	E: .	F: .

CS(=O)(=O)c1cccc(-c2nnc(NC(=O)c3ccc(S(=O)(=O)N4CCCC4)cc3)o2)c1
  A: 56*	B: 2	C: -16	D: 9	E: 0	F: 0

C[C@H]1CCCCO[C@H](CN(C)C(=O)Cc2ccccc2)[C@@H](C)CN([C@@H](C)CO)C(=O)c2cc(NC(=O)Nc3ccc(F)cc3)ccc2O1
  A: -4	B: 1	C: -5	D: -8	E: 0	F: -3

C[C@H]1CN([C@@H](C)CO)C(=O)c2cc(NS(=O)(=O)c3ccc(Cl)cc3)ccc2O[C@H]1CN(C)S(=O)(=O)c1ccc(F)cc1
  A: 21	B: -3	C: 1	D: 2	E: 0	F: 1

One compound at a time (already shown):
Cc1nnc(NC(=O)c2ccc(S(=O)(=O)N3CC(C)OC(C)C3)cc2)o1 (stereo not drawn) is listed as ARNT-TACC3 inh = 64*; AF4-AF9 inh = 0; UUG fidelity = -20; S100A4 MyoIIA = -3; E-sel inducer = -1; ERAP1 inh = -2
CN(C)S(=O)(=O)c1cccc(NC(=S)N/N=C/c2cc(Br)ccc2O)c1 is listed as ARNT-TACC3 inh = 62*; AF4-AF9 inh = 16; UUG fidelity = -14; S100A4 MyoIIA = 1; E-sel inducer = .; ERAP1 inh = -1
